## Binding of CDR-mutated scFvs to a peptide of the spike HR2 region

Data: MIT Lincoln Laboratory AlphaSeq set, Li et al. 2023, doi:10.1038/s41467-023-39022-2, as distributed in FLAb.

All variants were tested on one target, the spike HR2 peptide PDVDLGDISGINAS (SARS-CoV-2).

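The parent was found by panning a naive human phage display library on the peptide. The variants were designed computationally from a first round of random CDR variants and then made and measured. Their group label is 14H_En_Gen (En: ensemble of fine-tuned language models; Gen: genetic algorithm). In AlphaSeq, yeast of one mating type display the scFv and yeast of the other type display the target. Binding brings cells together so that they mate, and sequencing counts the barcode pairs among the diploids. A regression on co-assayed BCL2-family reference pairs converts the normalised counts of each replicate to an apparent Kd. The assay was run in six technical replicates.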

Parent: Ab-14, a human scFv built as VH, a (GGGGS)3 linker, VL. Only the CDRs of the heavy chain vary.
VH: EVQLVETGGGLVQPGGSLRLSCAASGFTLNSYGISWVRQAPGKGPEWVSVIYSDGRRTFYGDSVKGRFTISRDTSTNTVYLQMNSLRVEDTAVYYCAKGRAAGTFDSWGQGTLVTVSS
VL: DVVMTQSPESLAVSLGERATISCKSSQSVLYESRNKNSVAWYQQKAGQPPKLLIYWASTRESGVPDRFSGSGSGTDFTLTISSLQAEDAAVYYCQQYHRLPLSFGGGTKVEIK

Variants are written as CDR1, CDR2 and CDR3 of the heavy chain (limits as in the source). Parent: GFTLNSYGIS, VIYSDGRRTFYGDSVK, GRAAGTFDS.
The read-out is the apparent dissociation constant on a log10 scale (nM): the lower, the stronger.
An entry "n.d." has no value in the source: the pair was not observed among the diploids in that replicate. This suggests poor binding but is not conclusive.
In the paper, a design with two or fewer of six values counts as a poor binder.
Empty control strains, which show no peptide, gave a signal in 1% of pairings with all heavy chain designs; the median was 2.08 and 95% of these signals were weaker than 0.84. No background was subtracted. For each scFv, signals with the empty controls are counted beside the result, with their mean in brackets.
The parent sequence was in this pool as ten entries: three were never detected, three once, and four in most replicates, with averages from 0.34 to 2.37.
Values of this round are not directly comparable with the first-round values of the same sequences.

| CDR-H1 | CDR-H2 | CDR-H3 | log10 Kd, replicates | control signals |
|---|---|---|---|---|
| GFDLEEYGIS | VIYADGKRTAYADSVK | GEVAGTFDV | -0.19 -0.43 -0.72 -0.38 -0.53 -0.24 | 0 of 18 |
| GFDLNEYGIS | VIYADGKRTSYADSVK | GNQAGTFDV | -0.23 -0.08 -0.46 -0.23 -0.70 -0.51 | 1 of 18 (1.84) |
| GFDLNEYGIS | VIYADGMRTYYADSVK | GTNAGTFDV | -0.45 -0.27 -0.50 -0.68 -0.71 -0.43 | 0 of 18 |
| GFDLNEYGIS | VIYADGVRKAYADSVK | GNTAGTFDV | 0.15 -0.01 0.16 -0.16 0.61 0.77 | 0 of 18 |
| GFDLNEYGIS | VIYADGMRTAYADNVK | GETAGTFDL | -0.34 -0.31 0.02 -0.71 -0.20 -0.54 | 0 of 18 |
| GFDLNEYGIS | VIYADGMRKAYADSVK | GTNAGTFDV | -0.20 -0.20 -0.35 -0.21 -0.37 -0.28 | 0 of 18 |
| GFDLNEYGIS | VIYADGKRTAYADSVK | GNAAGTFDV | -0.08 0.24 -0.69 0.19 -0.70 -0.23 | 0 of 18 |
| GFDLNEYGIS | VIYADGQRTAYADSVK | GDNAGTFDV | -0.64 -0.13 -0.43 -0.32 -0.79 -0.08 | 0 of 18 |
| GFDLNEYGIS | VIYADGMRTSYADDVK | GNVAGTFDQ | 0.36 -0.04 -0.35 -0.12 -0.10 0.08 | 0 of 18 |
| GFDLDEYGIS | VIYADGMRTFYADDVK | GNVAGTFDV | -0.52 -0.70 -0.68 -0.80 -0.66 -0.77 | 0 of 18 |
| GFDLNEYGIS | VIYADGMRTAYSDDVK | GTNAGTFDI | -0.27 -0.34 -0.51 -0.39 -0.21 -0.37 | 0 of 18 |
| GFDLDEYGIS | VIYADGKRTAYADSVK | GNVAGTFDQ | -0.15 -0.14 -0.39 -0.31 -0.42 -0.22 | 2 of 18 (2.61) |
| GFDLNEYGIS | VIYADGMRTAYTDSVK | GTNAGTFDQ | -0.40 -0.38 -0.55 -0.69 -0.51 -0.42 | 1 of 18 (2.81) |
| GFDLDEYGIS | VIYADGVRTAYSDSVK | GENAGTFDL | 0.29 0.11 0.09 -0.12 0.07 0.44 | 0 of 18 |
| GFDLNEYGIS | VIYADGKRTAYADNVK | GETAGTFDQ | -1.18 -0.82 -1.11 -0.32 -1.11 -0.53 | 1 of 18 (0.39) |
| GFDLNEYGIS | VIYADGMRTFYADDVK | GENAGTFDL | -0.55 -0.82 -0.16 -0.64 -1.00 -0.59 | 0 of 18 |
| GFDLNEYGIS | VIYADGRRTAYIDSVK | GNTAGTFDV | 0.31 0.29 0.26 0.42 0.27 0.54 | 0 of 18 |
| GFDLNEYGIS | VIYADGLRTAYADSVK | GENAGTFDT | 0.55 -0.12 0.20 -0.72 -0.72 0.05 | 0 of 18 |
| GFSLDEYGIS | VIYADGMRTAYADSVK | GENAGTFDV | 1.18 1.49 1.48 0.74 1.34 1.48 | 0 of 18 |
| GFDLNEYGIS | VIYADGQRTAYADNVK | GNVAGTFDV | -0.17 -0.52 -0.41 -0.31 -0.29 -0.23 | 0 of 18 |
| GFDLNEYGIS | VIYADGQRKAYADSVK | GNVAGTFDT | -0.36 -0.96 -1.01 -0.83 -0.91 -0.46 | 0 of 18 |
| GFDLNEYGIS | VIYADGVRTAYADSVK | GETAGTFDI | -0.17 -0.05 -0.12 -0.53 -0.48 -0.04 | 0 of 18 |
| GFDLNEYGIS | VIYADGRRTAYADDVK | GGNAGTFDV | -0.39 -0.67 -0.52 -0.70 -0.76 -0.46 | 0 of 18 |
| GFDLEDYGIS | VIYADGMRTAYSDSVK | GEVAGTFDV | 0.17 -0.50 0.17 -0.17 -0.58 0.14 | 0 of 18 |
| GFDLNEYGIS | VIYADGMRTAYTDSVK | GNTAGTFDM | 0.06 -0.50 0.34 -0.56 -1.45 -0.49 | 0 of 18 |
| GFDLDEYGIS | VIYADGQRTAYSDSVK | GSNAGTFDV | -0.37 -0.84 -0.81 -0.75 -0.85 -0.72 | 0 of 18 |
| GFDLNEYGIS | VIYADGRRTAYADSVK | GETAGTFDL | 1.33 1.21 n.d. 1.06 1.57 1.84 | 1 of 18 (2.15) |
| GFDLDEYGIS | VIYADGMRTAYADKVK | GENAGTFDI | n.d. n.d. n.d. n.d. n.d. 1.49 | 0 of 18 |
| GFDLDEYGIS | VIYADGQRTAYSDSVK | GENAGTFDI | 0.29 0.13 0.26 -0.32 -0.21 0.38 | 0 of 18 |
| GFDLNEYGIS | VIYADGVRTAYSDSVK | GGNAGTFDI | -0.15 1.41 -0.02 1.94 -0.10 0.82 | 0 of 18 |
| GFDLNEYGIS | VIYADGVRTYYADSVK | GTNAGTFDV | -0.08 -0.79 -0.73 -0.31 -0.71 -0.67 | 0 of 18 |
| GFDLNEYGIS | VIYADGVRTAYADSVK | GSNAGTFDL | -0.52 -0.08 -0.07 -0.17 -0.17 0.04 | 0 of 18 |
| GFDLNEYGIS | VIYADGMRTAYSDSVK | GEVAGTFDL | -0.31 -0.34 -0.39 -0.51 -0.49 -0.21 | 1 of 18 (2.43) |
| GFDLNEYGIS | VIYADGRRTAYADSVK | GEVAGTFDM | -0.06 -0.50 -0.26 -0.50 -0.19 -0.62 | 1 of 18 (2.85) |
| GFDLDEYGIS | VIYADGQRTVYADSVK | GNVAGTFDL | -0.05 0.12 -0.02 -0.42 -0.33 -0.17 | 0 of 18 |
| GFDLNEYGIS | VIYADGMRTSYADSVK | GANAGTFDV | -0.61 -0.50 -1.01 -1.07 -1.00 -0.64 | 0 of 18 |
| GFDLEEYGIS | VIYADGRRTAYADSVK | GNVAGTFDL | -0.15 -0.55 0.09 -0.09 -0.43 -0.40 | 0 of 18 |

Excerpt, the final 2 entries:

CDR-H1,CDR-H2,CDR-H3,"log10 Kd, replicates",control signals
GFDLNEYGIS,VIYADGMRTSYADSVK,GANAGTFDV,-0.61 -0.50 -1.01 -1.07 -1.00 -0.64,0 of 18
GFDLEEYGIS,VIYADGRRTAYADSVK,GNVAGTFDL,-0.15 -0.55 0.09 -0.09 -0.43 -0.40,0 of 18